Key:
[1] = Metabolic stability in human liver microsome; details: NADPH, 60 min
[2] = Pharmacokinetic experiment on SD rats (iv and intragastric)
[3] = system: LPS/IL-1β-induced IL-6 secretion in human peripheral blood mononuclear cells (PBMCs); test: Inhibition of LPS/IL-1β-induced IL-6 secretion in human PBMCs (IL-6 ELISA); details: read-out: IC50, inhibition of LPS/IL-1β-induced secretion of IL-6 in PBMC cells; LPS 10 ng/mL + IL-1β 20 ng/mL, 24 h pre-incubation, 20 h stimulation
[4] = system: R848-induced IL-6 secretion in human peripheral blood mononuclear cells (PBMCs); test: Inhibition of R848-induced IL-6 secretion in human PBMCs (IL-6 ELISA); details: read-out: IC50, inhibition of R848-induced secretion of IL-6 in PBMC cells; R848 2.5 μg/mL, 20 h pre-incubation, 24 h stimulation
IRAK4 = IRAK4 (Homo sapiens, UniProt Q9NWZ3); test: IRAK4 protein degradation in THP1 cells (Western blot); format: cell-based; details: read-out: DC50, IRAK4 protein degradation in THP1 cells; THP-1 cells, 24 h
[5] = system: DSS-induced enteritis model; test: DSS-induced enteritis (colitis) model; details: po, QD, Model 10.33 ± 1.11, Mean ± SD, n = 7

Chains of the proteins cited; added tags and fusions are not shown.
UniProt Q9NWZ3, whole entry: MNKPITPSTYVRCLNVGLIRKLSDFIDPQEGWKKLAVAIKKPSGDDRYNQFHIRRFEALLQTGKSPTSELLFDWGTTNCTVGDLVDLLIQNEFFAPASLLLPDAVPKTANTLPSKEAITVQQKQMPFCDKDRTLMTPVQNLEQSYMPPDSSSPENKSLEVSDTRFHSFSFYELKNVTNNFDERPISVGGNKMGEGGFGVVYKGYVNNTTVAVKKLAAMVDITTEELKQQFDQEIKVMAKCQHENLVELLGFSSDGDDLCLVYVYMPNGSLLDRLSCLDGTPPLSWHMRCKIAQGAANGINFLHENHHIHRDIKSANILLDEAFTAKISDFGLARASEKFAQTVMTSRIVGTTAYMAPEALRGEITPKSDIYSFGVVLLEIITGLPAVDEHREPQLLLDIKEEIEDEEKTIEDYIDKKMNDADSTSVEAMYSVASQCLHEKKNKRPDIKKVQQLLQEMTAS

- Human liver microsome (t1/2, min) [1]: 145 min
- Oral bioavailability Fobs ([2]; ig 5.00 mg/kg vs iv 1.00 mg/kg): 27.7%
- AUCall ([2]; ig, 5.00 mg/kg): 1353.75 ± 515.03 ng·h/mL
- AUCinf ([2]; ig, 5.00 mg/kg): 1377.38 ± 512.87 ng·h/mL
- Peak plasma concentration Cmax ([2]; ig, 5.00 mg/kg): 466.67 ± 225.85 ng/mL
- AUCall ([2]; iv, 1.00 mg/kg): 963.53 ± 123.07 ng·h/mL
- AUCinf ([2]; iv, 1.00 mg/kg): 995.74 ± 142.87 ng·h/mL
- Peak plasma concentration Cmax ([2]; iv, 1.00 mg/kg): 634.00 ± 138.79 ng/mL
- DC50 (IRAK4): 3.03 nM
Compound: CN(C)c1cc2nn([C@H]3CC[C@H](CN4CCC(n5cc6ccc(N7CCC(=O)NC7=O)cc6n5)CC4)CC3)cc2cc1NC(=O)c1cnn2cccnc12
- IC50 [3]: 0.27 nM
- IC50 [4]: 10.5 nM
- DAI Score d 8 ([5]; 10 mpk): 4.57 ····
- DAI Score d 8 ([5]; 20 mpk): 3.71 ····
- DAI Score d 8 ([5]; 40 mpk): 3.14 ····

Reference: patent US20260216348A1, “IRAK DEGRADATION AGENT AND USE THEREOF” (Increland, priority 2023, published 2026)
